Measurements published in US20230192886A1 (published 2023).

Molecular target: T1, PRAME (PRAME-004) peptide on HLA-A*02:01 (human)
T1 peptide: SLLQHLIGL
Experiment: cytokine release

B1: R17P1G3 (TCR, V domains shown)
Valpha: QKEVEQNSGPLSVPEGAIASLNCTYSDRGSQSFFWYRQYSGKSPELIMSIYSNGDKEDGRFTAQLNKASQYVSLLIRDSQPSDSATYLCAVGPSGTYKYIFGTGTRLKVLA
Vbeta: EAQVTQNPRYLITVTGKKLTVTCSQNMNHEYMSWYRQDPGLGLRQIYYSMNVEVTDKGDVPEGYKVSRKEKRNFPLILESPSPNQTSLYFCASSPGGSGNEQFFGPGTRLTVL
binding result: recognises
